## scFv variants of Ab-95 (light chain) against a SARS-CoV-2 spike peptide

All variants were tested on one target, the spike HR2 peptide PDVDLGDISGINAS (SARS-CoV-2).

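The starting antibody came from a phage panning campaign against this peptide. AAYL52 was designed without a model: most single CDR substitutions and a random sample of double and triple ones. The scFvs were displayed on barcoded MATa yeast, the peptide on MATalpha yeast. The frequency of each diploid, read from paired DNA barcodes, reflects how well the two displayed proteins bind. Scores were corrected for input abundance and mapped to Kd with protein pairs of known affinity run in the same pool. Mating was done three times.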

The variants keep the heavy chain, the linker and the frameworks of Ab-95 (scFv order VH, three GGGGS repeats, VL).
VH: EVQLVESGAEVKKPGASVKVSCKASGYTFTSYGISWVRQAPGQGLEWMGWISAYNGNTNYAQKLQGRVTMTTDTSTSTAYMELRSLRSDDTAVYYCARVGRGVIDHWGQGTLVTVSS
VL: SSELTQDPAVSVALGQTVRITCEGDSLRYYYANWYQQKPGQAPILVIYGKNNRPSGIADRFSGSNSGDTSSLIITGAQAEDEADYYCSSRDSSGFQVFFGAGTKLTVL

Positions count from residue 1 of the parent VL; N51W puts W in place of N.
Values are log10 of the apparent Kd in nM; lower means stronger binding.
Replicates are averaged; those with no signal do not enter the mean.
"not detected" marks a missing value. The strain was present, yet no cells mated with the target were sequenced in any replicate, which points to weak or no binding.
Nonspecific signal, from three strains lacking the peptide, appeared in 28% of pairings of library AAYL52, centred on 3.91 (5% of these signals below 2.90); values are not corrected for it.

| log10 Kd (nM), mean | replicates with signal | changes |
|---|---|---|
| 3.74 | 1/3 | N51W/S88V |
| 1.57 | 3/3 | Y31H/G49D/P54N |
| 1.60 | 3/3 | S26Y/Y30P/Y31N |
| 3.84 | 2/3 | G24E/L27M/S55A |
| 2.24 | 3/3 | R90I/F95P |
| 3.55 | 1/3 | G24N/D91M |
| not detected | 0/3 | P54G/S55G/D91L |
| 3.67 | 2/3 | S88A/R90C/F95A |
| 2.71 | 3/3 | D25L/K50S/V97A |
| 2.81 | 3/3 | Y29C/Y30F/S55P |
| 4.35 | 2/3 | E23K/A32E/S89H |
| 2.51 | 3/3 | Y30I/S93H/F98S |
| 4.03 | 2/3 | N33Y/S93L/G94E |
| not detected | 0/3 | S26Q/R28L/R90L |
| 2.85 | 3/3 | N33S/K50Q/S55I |
| 2.95 | 3/3 | G24D/R28M/S89V |
| 4.60 | 1/3 | G24C/N51R |
| 3.30 | 1/3 | D25E/S26T/L27C |
| 4.14 | 2/3 | R28G/G49F/N52P |
| 2.30 | 3/3 | Y29H/N52D/S55P |
| 3.79 | 1/3 | N33F/N51G/D91A |
| 4.69 | 1/3 | K50W/N51M/S55V |
| not detected | 0/3 | G24E/S93Q/Q96K |
| 3.10 | 3/3 | S26A/N51Q/D91F |
| 3.20 | 3/3 | G24R/N33Y/N52G |
| 3.52 | 1/3 | G24K/S26E/D91C |
| 3.19 | 3/3 | E23R/D25V/Y30L |
| 2.53 | 2/3 | S89I/S92Q/F95H |
| not detected | 0/3 | L27D/S55M/S88R |
| 2.82 | 1/3 | G24Y/S26N/Y29C |
| 3.98 | 1/3 | A32G/S89T/Q96W |
| 2.83 | 1/3 | Y30I/Y31V/K50A |
| 2.57 | 3/3 | S89C/F95N |
| 1.71 | 3/3 | Y29H/N52D |
| 0.62 | 3/3 | Y30R/N52E |
| 4.35 | 1/3 | K50F/S55V/S88L |
| 5.41 | 1/3 | D25R/A32Q/N33Q |
| 3.23 | 3/3 | Y31F/S92Y/F98L |
| 3.69 | 1/3 | G24A/D25M/F95K |
| not detected | 0/3 | D25T/A32F/G49I |
| 4.42 | 1/3 | D25E/R28V/P54C |
| 4.27 | 2/3 | D25P/N51L/R53E |
| 3.13 | 1/3 | S26M/R28E/D91Q |
| 3.79 | 3/3 | R28T/P54R/S88V |
| 3.29 | 3/3 | L27G/Y30H/Y31M |
| 3.51 | 3/3 | Y30M/N33W |
| not detected | 0/3 | N33M/N52F/S92E |
| 3.92 | 3/3 | Y30M/N33M/S92E |
| not detected | 0/3 | A32Y/N33L/P54I |
| 4.84 | 1/3 | L27E/N51I/G94L |

Parent in this assay: reference entry 2.31, copy in this library 2.25.

Source: Engelhart et al. 2022 (doi:10.1038/s41597-022-01779-4), MIT Lincoln Laboratory and A-Alpha Bio; data file from the FLAb repository.